# Screening results from PubChem.
# CASP6 VEID inh: blocks human caspase-6 cleavage activity; P55212; purified caspase-6, Z-VEID-R110 cleavage fluorescence; inhibition, % at 12.5 µM; 350,000 compounds, 0.53% hits; AID 686996;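 active means mean inhibition across replicates at least about 35%, with every replicate also reaching that limit, limit read from the data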;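 further: 0% = median of neutral control wells and 100% = no fluorescence left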
# PglD DTNB: inhibitors of Campylobacter jejuni PglD acetyltransferase; purified PglD enzyme, DTNB colorimetric CoA detection; inhibition, % at 12.5 µM; 360,000 compounds, 0.098% hits; in the data active means inhibition above about 16%, passing the limit was not always enough
# RAD52 inh: RAD52 (human) annealing inhibition | recombinant RAD52 DNA annealing, FRET fluorescence | P43351 | inhibition, % at 18.7 µM | 360,000 compounds, 0.46% hits;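 active means every replicate showing at least 50% inhibition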
# GSIS activator: GLuc luminescence reporter in INS-1E cells, primary screen for activators of glucose-dependent secretion of insulin | INS-1E GLuc reporter insulin secretion, 2-3 h | AID 743287 | activation, % at 16.6 µM | 370,000 compounds, 0.61% hits;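 active means lowest replicate activation of at least 40%, so every replicate reaches that level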;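 further: 0% = median of neutral control wells and 100% = median of IBMX positive control wells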
# UUG fidelity: yeast start codon fidelity modulation | S. cerevisiae UUG-firefly luciferase reporter, luminescence/redox ratio | activity score, % at 18.7 µM | 0.13% of 350,000 active | AID 602363;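 active means replicate mean at a twofold rise or more, about +100% in these data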;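 further: firefly luciferase made from a UUG start codon reports start codon fidelity; reporter light over untreated wells divided by growth signal over untreated wells; some hits fall short of that in this replicate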
# RAD54 branch: inhibitors of human RAD54 branch migration; 360,000 compounds, 0.14% hits; RAD54 Holliday junction branch migration, FAM/BHQ fluorescence; inhibition, % at 10.4 µM; Q92698; AID 602329;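 active means mean normalized replicate activity at least 40 and at least half of replicates scoring 40 or more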;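 further: 0% = median of neutral control wells and 100% = median of positive control wells; inhibitors cause a drop in the FAM fluorescence signal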
# * hit, by the source's call; / = no result. In the library only some 1.5% were active in any assay of this set; here they are far more common.
nr	SMILES	CASP6 VEID inh	PglD DTNB	RAD52 inh
1	Cc1ccccc1S(=O)(=O)N1CCCCN2[C@@H](CO)[C@H](c3ccc(C#CCN(C)C)cc3)[C@@H]2C1	/	-1	/
2	Cc1ccccc1S(=O)(=O)N1CCCCN2[C@H](C1)[C@@H](c1ccc(C#CCN(C)C)cc1)[C@@H]2CO	2	0	60*
3	Cc1ccc(-c2ccc([C@@H]3[C@H]4CN(S(=O)(=O)c5cccc(C)c5)CCCCN4[C@H]3CO)cc2)cc1	-2	1	12
4	Cc1ccc(-c2ccc([C@@H]3[C@@H](CO)N4CCCCN(S(=O)(=O)c5cccc(C)c5)C[C@H]34)cc2)cc1	-2	-1	53*
5	CCC(=O)Nc1ccc(N2CCCCC2)c(C(=O)Nc2ccc(OC)cc2)c1	1	7	-16
6	CN(C)CCCC1(O)c2ccccc2CCc2ccccc21	-6	/	3
7	C/C=C/c1ccc([C@H]2[C@@H](CO)N3CCCCN(S(=O)(=O)c4ccc(OC)cc4)C[C@H]23)cc1	1	0	60*
8	O=C(Nc1cccc(-c2nc3ccccc3s2)c1)c1cc(-n2cnnc2)ccc1Cl	/	2	/
9	Cc1ccc2sc(-c3ccc(NC(=O)c4cc(-n5cnnc5)ccc4Cl)cc3)nc2c1	/	-4	/
10	CCC(=O)N(C)C[C@H]1[C@@H](c2ccc(C3=CCCC3)cc2)[C@@H](CO)N1C(=O)CC	1	4	0

nr	GSIS activator	UUG fidelity	RAD54 branch
1	4	3	-1
2	13	16	-5
3	/	2	4
4	/	-8	6
5	-18	6	-6
6	/	/	/
7	-9	-2	-5
8	/	-4	-10
9	119*	1	3
10	6	26	1

# Carrying on.
nr	SMILES	CASP6 VEID inh	PglD DTNB	RAD52 inh
11	Cc1ccc(C2(C)NC(=O)N(CC(=O)Nc3ccc(-c4nc5ccc(C)cc5s4)cc3)C2=O)cc1 (configuration not stated)	1	4	-67
12	Cc1ccc2nc(-c3ccc(NC(=O)CCN4C(=O)c5ccccc5C4=O)cc3)sc2c1	2	-2	-15
13	CC(=O)c1c(C)nc(Nc2nc(C)c3cc(C)ccc3n2)nc1C	6	/	-2
14	C=C(CCC(=O)c1ccccc1)C(=O)c1ccccc1	61*	/	0
15	O=C(CCCCCCCC(=O)c1ccccc1)c1ccccc1	3	-1	5
16	COc1ccc(OC)c(CNC(=O)C2CCCN(S(=O)(=O)N3CCC(C)CC3)C2)c1 (configuration not stated)	3	2	-21
17	CCOC(=O)N1CCN(S(=O)(=O)N2CCCC(C(=O)NCc3cc(OC)ccc3OC)C2)CC1 (configuration not stated)	-2	0	0
18	O=C(Nc1cccc(C(=O)N2CCOCC2)c1)c1ccc([N+](=O)[O-])cc1	42*	-8	0
19	Cn1ccnc1SCc1cc(=O)[nH]c2ccccc12	0	-3	-5
20	CCn1c(SCc2cc(=O)[nH]c3ccccc23)nc2c1c(=O)n(C)c(=O)n2C	/	/	/

nr	GSIS activator	UUG fidelity	RAD54 branch
11	44*	-27	1
12	/	-22	5
13	3	/	/
14	/	/	/
15	5	1	-25
16	0	-15	-15
17	99*	0	0
18	18	2	6
19	2	-14	-1
20	49*	/	/

# Single records, from the list above. Order of screens: CASP6 VEID inh	PglD DTNB	RAD52 inh	GSIS activator	UUG fidelity	RAD54 branch
# `Cc1ccc2nc(-c3ccc(NC(=O)CCN4C(=O)c5ccccc5C4=O)cc3)sc2c1` is listed as 2	-2	-15	/	-22	5
# `O=C(Nc1cccc(C(=O)N2CCOCC2)c1)c1ccc([N+](=O)[O-])cc1` is listed as 42*	-8	0	18	2	6
# `COc1ccc(OC)c(CNC(=O)C2CCCN(S(=O)(=O)N3CCC(C)CC3)C2)c1` (configuration not stated) is listed as 3	2	-21	0	-15	-15

# More structures follow.
nr	SMILES	CASP6 VEID inh	PglD DTNB	RAD52 inh
21	C1CCN(CCCNC2C3CC4CC(C3)CC2C4)C1 (configuration not stated)	-54	-2	-5
22	C(CNC1C2CC3CC(C2)CC1C3)CN1CCOCC1 (configuration not stated)	-8	-8	4
23	CC1(C)Cc2c(sc3nc(SCC(=O)N4CCOCC4)nc(N)c23)CO1	/	0	/
24	Cc1ccc(S(=O)(=O)N/N=C\c2ccc(C)o2)cc1	41*	/	-16
25	Cc1ccc(/C=N/NS(=O)(=O)c2ccc([N+](=O)[O-])cc2)o1	/	-3	/
26	CC(C)=CC(=O)OCc1csc(CC(=O)Nc2ccccc2C)n1	0	4	-28
27	Cc1ccccc1NC1=C/C(=N\S(=O)(=O)c2cccs2)c2ccccc2C1=O	/	2	/
28	Cc1ccccc1NC1=C/C(=N\S(=O)(=O)c2ccc(C(=O)O)cc2)c2ccccc2C1=O	99*	-6	-2
29	CCc1ccc(S(=O)(=O)/N=C2\C=C(NS(=O)(=O)c3ccccc3)C(=O)c3ccccc32)cc1	49*	-8	-22
30	COC(=O)C(C(C)=O)C1=C/C(=N\S(=O)(=O)c2ccc(C)cc2)c2ccccc2C1=O (configuration not stated)	/	-5	/

nr	GSIS activator	UUG fidelity	RAD54 branch
21	40*	8	-6
22	22	-23	/
23	/	-7	4
24	6	/	/
25	1	-10	1
26	-9	-11	-5
27	/	-16	7
28	-49	-51	2
29	-5	10	15
30	/	-1	-3

# More results:
nr	SMILES	CASP6 VEID inh	PglD DTNB	RAD52 inh
31	CC(C)c1ccc(S(=O)(=O)/N=C2\C=C(NS(=O)(=O)c3ccccc3)C(=O)c3ccccc32)cc1	22	3	-2
32	O=C(O)c1ccc(S(=O)(=O)/N=C2\C=C(Nc3ccccc3F)C(=O)c3ccccc32)cc1	99*	-2	6
33	Cc1ccc(NC(=O)CN2C(=O)C3CC=CCC3C2=O)cc1S(=O)(=O)N1CCOCC1 (configuration not stated)	-3	-2	8
34	Cc1ccc(S(=O)(=O)Nc2ccc3c(c2)C(=O)N([C@H](C)CO)C[C@H](C)[C@@H](CN(C)Cc2ccc(C(=O)O)cc2)O3)cc1	0	-1	4
35	COC(=O)c1scc(C)c1NC(=O)CC1NCCNC1=O (configuration not stated)	-2	0	-5
36	O=C(Cc1nc2ccccc2[nH]1)N/N=C/c1ccccc1	4	/	-28
37	Cc1cc(N2CCCCC2)nc2c(C)cccc12	-2	/	4
38	C[C@@H]1CCCCO[C@H](CN(C)Cc2ccccc2)[C@H](C)CN([C@@H](C)CO)C(=O)c2cc(NS(=O)(=O)c3ccc(Cl)cc3)ccc2O1	0	2	54*
39	Cc1ccc(S(=O)(=O)Nc2ccc3c(c2)C(=O)N([C@@H](C)CO)C[C@H](C)[C@@H](CN(C)CC2CCCCC2)OCCCC[C@H](C)O3)cc1	1	1	55*
40	C[C@@H]1CCCCO[C@H](CN(C)Cc2ccccc2)[C@@H](C)CN([C@@H](C)CO)C(=O)c2cc(NS(=O)(=O)c3ccc(Cl)cc3)ccc2O1	-1	1	64*
41	C[C@@H]1CCCCO[C@@H](CN(C)Cc2ccccc2)[C@H](C)CN([C@H](C)CO)C(=O)c2cc(NS(=O)(=O)c3ccc(Cl)cc3)ccc2O1	-1	1	61*
42	S=c1[nH]nc(-c2ccncc2)n1/N=C/c1cn(-c2ccccc2)nc1-c1ccc(Cl)cc1	1	4	-6
43	O=C(NC(CO)(CO)CO)c1coc(=O)c(Br)c1	/	-1	/

nr	GSIS activator	UUG fidelity	RAD54 branch
31	-8	-20	1
32	-18	-37	12
33	0	2	-5
34	16	-10	9
35	60*	-6	0
36	0	/	/
37	-14	/	/
38	-26	22	0
39	-1	34	5
40	-22	21	-2
41	-20	14	2
42	/	-8	-2
43	/	-17	-1
